Test system: 5α-reductase
Experiment: In vivo inhibition of 5α-reductase (testosterone-induced prostate hypertrophy in castrated rats)
Set-up: species or system rat
Conditions: castrated testosterone-implanted rats, once daily for 7 days, ventral prostate weight
Description: The standard test for the antiandrogenic effect in rats was used. Prepuberal 22-day-old male rats were castrated via scrotal incision under light ether anaesthesia. On the seventh day after orchiectomy, androgen replacement was performed via subcutaneous implantation of 1 cm-long Silastic® tube (Dow-Corning, model No. 602-265) filled with a mixture of 25% testosterone and 75% cholesterol. The rats were then treated orally with the tested compounds (7 animals/group), once daily for 7 consecutive days. Twenty four hours after the last dose the rats were sacrificed and the ventral prostate was removed and weighed. Control animals (testosterone controls) received the vehicle (0.5 ml/kg of 0.5% Methocel/0.4% Tween 80). One group of castrated rats was not implanted with testosterone (castrated controls).
The mean percentage of inhibition of the T-induced hypertrophic response of the prostate was calculated according to the following formula:
% inhibition=100×(WTC -WI)/(WTC -WCC)
where WTC, WCC and WI are the mean prostate weight of testosterone control, castrated control and inhibitor treated group, respectively.

CC(C)C(NC(=O)[C@H]1CC[C@H]2[C@@H]3CC[C@H]4NC(=O)C=C[C@]4(C)[C@H]3CC[C@]12C)C(=O)C(F)(F)F (stereo partly drawn) [Compound 7, N-[1,1,1-trifluoro-4-methyl-2-oxopent-3-yl]3-oxo-4-aza-5α-androst-1-ene-17β-carboxamide]
% Inhibition of prostate weight at 3 mg/kg/day p.o.: 54%
